The values below come from ChEMBL document CHEMBL1153772, “Isolation, synthesis, and biological activity of aphrocallistin, an adenine-substituted bromotyramine metabolite from the Hexactinellida sponge Aphrocallistes beatrix” (J Nat Prod, 2009).

Experiment [1] relates to Vero. As to the kind of experiment: Selectivity ratio of IC50 for human DLD1 cells bearing p53 mutation to IC50 for african green monkey Vero cells.
The test system of experiment [2] is Vero. Put plainly: Selectivity ratio of IC50 for human PANC1 cells having p53 mutation to IC50 for african green monkey Vero cells.

With `CC(=O)N(C)CCc1cc(Br)c(OCCCNc2ncn(C)c3ncnc2-3)c(Br)c1` [APHROCALLISTIN], the “Ratio IC50” value was 10 in the experiment on Vero [1] and 3 with Vero [2].
